Experimental data reported in US4479951A, “1.4;3.6-Dianhydrohexitol nitrates substituted by purine bases, processes for their preparation and pharmaceutical compositions” (Dr. Willmar Schwabe GmbH & Co., priority 1980, dated 1984).

Legend:
mongrel cats = assay: heart-circulation effectiveness on narcotised mongrel cats, intraduodenal administration; details: 5 mg/kg intraduodenal
[1] = test system: isolated guinea pig hearts; assay: coronary flowthrough-increasing effectiveness, isolated hearts according to Langendorff; details: 25 μg/ml

O=[N+]([O-])O[C@H]1CO[C@H]2[C@@H]1OC[C@H]2O[N+](=O)[O-]
dp/dt (mongrel cats; 0 min): 8800 ± 831 mm sec
dp/dt (mongrel cats; 10 min): 8000 ± 1097 mm sec
dp/dt (mongrel cats; 30 min): 7667 ± 807 mm sec
dp/dt (mongrel cats; 60 min): 7633 ± 743 mm sec
dp/dt (mongrel cats; 120 min): 7050 ± 661 mm sec
heart frequency (mongrel cats; 120 min): 167.7 ± 9.4 min⁻¹
blood pressure Δ (mongrel cats; printed on the 0 min line (= change 0 to 10 min)): -13.9 mm. Hg
blood pressure Δ (mongrel cats; printed on the 10 min line (= change 0 to 30 min)): -13.1 mm. Hg
blood pressure Δ (mongrel cats; printed on the 30 min line (= change 0 to 60 min)): -10.1 mm. Hg
blood pressure Δ (mongrel cats; printed on the 60 min line (= change 0 to 120 min)): -9.3 mm. Hg
Flowthrough, percentage change in comparison with the initial values [1]: +91.54%
Frequency, percentage change in comparison with the initial values [1]: +2.00%
Inotropism, percentage change in comparison with the initial values [1]: -8.11%
